Test results reported in PMC9814530, “Rapid de novo discovery of peptidomimetic affinity reagents for human angiotensin converting enzyme 2” (Communications Chemistry, 2022).

Sequences of proteins named here, by UniProt entry; tags and fusion partners are left off. Residues count along the entry.
UniProt Q9BYF1, 18-740 limits assumed: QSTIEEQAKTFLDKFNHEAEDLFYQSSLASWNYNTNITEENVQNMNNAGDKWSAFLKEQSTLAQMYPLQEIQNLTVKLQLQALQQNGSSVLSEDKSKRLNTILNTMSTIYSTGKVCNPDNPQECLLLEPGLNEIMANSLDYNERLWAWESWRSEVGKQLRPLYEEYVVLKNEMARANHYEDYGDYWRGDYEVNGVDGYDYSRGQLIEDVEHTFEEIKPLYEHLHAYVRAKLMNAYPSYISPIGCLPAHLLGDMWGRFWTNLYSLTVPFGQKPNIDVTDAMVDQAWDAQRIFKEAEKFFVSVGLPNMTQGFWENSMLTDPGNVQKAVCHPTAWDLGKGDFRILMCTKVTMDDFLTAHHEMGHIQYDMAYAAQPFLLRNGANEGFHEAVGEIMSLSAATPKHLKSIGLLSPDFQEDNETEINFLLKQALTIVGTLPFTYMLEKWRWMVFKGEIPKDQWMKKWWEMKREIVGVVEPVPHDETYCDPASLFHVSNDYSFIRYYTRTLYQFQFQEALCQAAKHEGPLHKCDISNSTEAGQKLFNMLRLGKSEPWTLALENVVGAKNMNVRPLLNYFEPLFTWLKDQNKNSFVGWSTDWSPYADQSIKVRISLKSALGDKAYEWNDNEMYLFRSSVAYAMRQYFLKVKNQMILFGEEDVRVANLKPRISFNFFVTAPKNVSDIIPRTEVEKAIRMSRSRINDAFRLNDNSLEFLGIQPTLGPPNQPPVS

Biological target: ACE2 (Homo sapiens, UniProt Q9BYF1)
Assay: Bio-layer interferometry (BLI) binding of immobilized biotinylated peptides to ACE2
Details: biotinylated peptide on streptavidin tips, ACE2 1000-62.5 nM, 30 °C, global 1:1 fit, read-out: KD (dissociation constant) to ACE2
Protocol: Peptide binding validation was carried out using the ForteBio Octet RED96 system. The chamber temperature was kept constant at 30 °C with a plate agitation speed at 1000 rpm. Briefly, streptavidin (SA)-coated biosensor tips were dipped into 200 μL of 1.0–2.0 μM biotinylated peptide solution (in a kinetic buffer (K.B.): 1 × PBS with 0.1% BSA and 0.02% Tween-20) for peptides immobilization. Once loaded with peptides, the tips were then moved into solutions containing various concentrations (1000, 500, 250, 125, and 62.5 nM) of recombinant ACE2 protein (purchased from Sino Biological, Catalog number 10108-H08H) in the K.B. to obtain the association curve. After the 180 s association step, the tips were moved back into the K.B. to obtain the dissociation curve. Buffer-only and protein-only conditions (concentration at 1000 nM) were used as references for background subtraction. The association and dissociation curves were fitted with the ForteBio Biosystems Data Analysis Software under 5 experimental conditions (n = 5, global fitting algorithm, binding model 1:1) to calculate the apparent dissociation constant (KD). […]
affinity was reported using the kinetic fitting results ( KD is calculated by divide the […]
scrambled sequences, Scrm N1.1 and Scrm N1.2, measured by BLI. […]
N6, and N8 to an unrelated protein, 12ca5, measured by BLI at concentration

| Compound | Kd |
| --- | --- |
| COc1ccc(C[C@H](NC(=O)[C@H](Cc2ccc(F)c(F)c2)NC(=O)[C@@H]2C[C@@H](O)CN2C(=O)[C@H]2CCCN2C(=O)[C@H]2CCCN2C(=O)CNC(=O)[C@H](CC2CC2)NC(=O)[C@H](Cc2cscn2)NC(=O)[C@@H](N)CC2CC2)C(=O)N[C@@H](Cc2cscn2)C(=O)NCCC(=O)NCc2ccc(C(=O)N[C@@H](CCCCN)C(N)=O)cc2)cc1OC [ABP N4] | 123 nM |
| CS(=O)(=O)CC[C@H](NC(=O)[C@H](Cc1ccc(F)c(F)c1)NC(=O)[C@H](CCCN)NC(=O)[C@@H](N)CC1CC1)C(=O)N1C[C@H](O)C[C@H]1C(=O)N[C@@H](Cc1cscn1)C(=O)N1CCC[C@@H]1C(=O)N[C@@H](CCC(N)=O)C(=O)N[C@@H](Cc1ccc(F)c(F)c1)C(=O)N[C@@H](CC1CCCCC1)C(=O)N[C@@H](CC1CCCCC1)C(=O)NCCC(=O)N[C@@H](CCCCN)C(N)=O [ABP N6] | 33 nM |
